Reference: patent publication US20260124309A1, “STAT6 DEGRADERS AND USES THEREOF” (Kymera Therapeutics, Inc., priority 2023, published 2026)

Sequences of proteins named here, by UniProt entry; tags and fusion partners are left off.
UniProt P42226, whole entry: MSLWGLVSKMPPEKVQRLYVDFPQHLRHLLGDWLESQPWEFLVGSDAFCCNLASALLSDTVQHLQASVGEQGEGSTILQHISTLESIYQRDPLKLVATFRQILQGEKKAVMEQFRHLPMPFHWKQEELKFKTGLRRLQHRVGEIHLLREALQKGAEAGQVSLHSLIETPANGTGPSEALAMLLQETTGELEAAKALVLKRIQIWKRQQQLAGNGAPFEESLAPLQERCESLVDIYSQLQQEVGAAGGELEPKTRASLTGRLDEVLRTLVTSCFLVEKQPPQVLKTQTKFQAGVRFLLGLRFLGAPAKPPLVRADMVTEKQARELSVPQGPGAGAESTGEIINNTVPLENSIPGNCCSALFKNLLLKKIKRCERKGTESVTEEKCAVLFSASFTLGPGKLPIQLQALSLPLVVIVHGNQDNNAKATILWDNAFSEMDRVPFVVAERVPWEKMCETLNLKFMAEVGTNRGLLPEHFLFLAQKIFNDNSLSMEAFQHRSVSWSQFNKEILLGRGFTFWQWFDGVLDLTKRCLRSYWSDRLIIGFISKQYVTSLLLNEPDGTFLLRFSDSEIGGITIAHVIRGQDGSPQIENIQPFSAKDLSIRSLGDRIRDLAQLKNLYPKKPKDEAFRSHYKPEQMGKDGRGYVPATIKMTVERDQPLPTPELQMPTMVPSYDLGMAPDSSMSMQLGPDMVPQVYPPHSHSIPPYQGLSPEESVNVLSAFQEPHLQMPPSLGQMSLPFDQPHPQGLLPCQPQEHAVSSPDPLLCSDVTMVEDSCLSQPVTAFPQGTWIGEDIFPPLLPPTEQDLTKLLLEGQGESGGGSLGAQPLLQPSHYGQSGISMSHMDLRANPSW

Legend:
STAT6 [1] = biological target: T1, STAT6 (Homo sapiens, UniProt P42226); experiment: STAT6 ubiquitination in PBMC (diGly peptide enrichment, mass spectrometry); conditions: for STAT6 ubiquitination profile: DiGly enriched peptides from treated cells, compared with endogenous profiles of the literature; for % of Total STAT6 Ub / Intensity: PBMC, 30 nM or 100 nM, 15 minutes
Procedure: This example describes ubiquitination of STAT6 by compounds disclosed herein. Human STAT6 contains the following amino acid sequence:
PBMC Sample Preparation Protocol. Frozen PBMC (AllCells LP, CR, MNC, 100M) were thawed and washed with prewarned complete media (RPMI 1640+10% HIFBS+Pen/Strep prepared with RPMI 1640 (Gibco. #11-875-093, #15140-122 and R&D Systems, #S11550H)). The cells were resuspended in complete media at 1.25 million cells per mL in flasks and incubated overnight in a tissue culture incubator.
The next day, 0.72 μL or 2.4 μL of a 10 mM stock solution of degrader compound (10 mM of I-1, I-167, I-205, I-383, or I-452 in DMSO) was added to a final concentration of 30 nM or 100 nM. At the end of treatment (15 minutes), the cell culture was poured into 50 mL tubes (10 tubes for each 480 mL total volume). The 50 mL tubes were spun down at 4000×g for 2 minutes. The media was decanted, and cells washed with 30 mL PBS. All the cells were combined, and then spun again at 4000×g for 2 minutes. Wash solution was decanted. All tubes were washed once more with 25 mL PBS and combined into one tube. 200 μL the cells (0.8%) was set aside for quality control analysis. The rest of the cells were spun down at 4000×g for 2 minutes. The second wash solution was decanted, and cells spun down again at 4000×g for 1 minute. A 1 mL pipette was used to remove all PBS from the pellet of cells. The pellet of cells was snap frozen for 20 seconds in liquid nitrogen, then stored at −78° C.
Extract protein, reduce, and alkylate: 1800 μL of Urca buffer (8 M Urca, 100 mM Triethylammonium bicarbonate (TEAB). 1 mM ethylenediaminetetraacetic acid (EDTA), 1% Halt™ Protease and Phosphotase Inhibitor (Thermo Fisher Scientific), and 1% Pierce™ Universal Nuclease (Thermo Fisher Scientific) was added to each cell sample. Samples were probe sonicated for 15 seconds (3 times) using 40% amplitude. Protein concentrations of the resultant cell lysates were determined by using Pierce™ Rapid Gold BCA Protein Assay Kit (Product No. A53226).
The lysate mixture containing 20 mg total proteins was reduced at RT for 30 min by adding dithiothreitol (DTT) to the final concentration of 10 mM DTT. 2-iodo acetamid (IAA) was then added to a final concentration of 10 mM to alkylate the proteins. The lysate mixture was placed in the dark for 30 mins, then a further amount of DTT to again reach 10 mM final concentration was added to the lysate mixture to neutralize excess IAA. The lysate mixture was incubated at room temperature for 5 min, then 100 mM TEAB buffer at pH 8.0 was added to dilute the lysate mixture to a urea concentration of less than IM. Trypsin/Lys-C Protease was then added to the reduced and alkylated lysate mixture to provide a protein to enzyme ratio of 1:50. The mixture was digested at 37° C. overnight in an incubator with 500 rpm shaking. The mixture was then acidified to a pH of lower than 3 using trifluoro acetic acid (TFA) and gently mixed to quench the digestion process.
Peptide Desalting: 200 mg Sep-Pak C18 cartridges (Waters) were activated by adding twice 750 μL of methanol (MeOH). Cartridges were equilibrated by twice letting 700 μL 0.1% formic acid (FA) pass through as above. The acidified sample mixture was added to the cartridges and collected after passing through the cartridge. Cartridges were washed three times with 700 μL of 0.1% formic acid. Peptides were eluted using 700 L volumes of 50% acetonitrile (ACN)^+0.1% TFA and dried in a speed-vac concentrator.
DiGly Peptide Enrichment: Peptide samples containing 20 mg/sample were resuspended in 1.8 mL of 1×HS IAP Bind Buffer #1 from PTMScan® HS Ubiquitin/SUMO Remnant Motif (K-GG) Kit (#59322S). To that end, pellets were broken up mechanically by pipetting repeatedly, followed by shaking at room temperature for 5 min or placement in a sonicator bath for 2 min to ensure complete solubilization. The pH of peptide solutions was adjusted to 7.0 with 1M pH 7.0 TRIS base solution. […]

STAT6 [2] = biological target: T1, STAT6; experiment: Selectivity of STAT6 degradation in human PBMC; type: cell-based; conditions: FIG. 1 (B)
STAT6 [3] = biological target: T1, STAT6; experiment: STAT6 degradation in human PBMC; type: cell-based; conditions: FIG. 1 (A)
STAT6-HiBiT = STAT6-HiBiT (Homo sapiens, UniProt P42226); experiment: STAT6 HiBiT degradation in A549 (STAT6-HiBiT) cells

COc1cc(N2CCN(c3ccc(-c4cc(C5=CCCN(C(=O)CCn6cccn6)C5)c(F)c5[nH]c(C(=O)N(C)C)cc45)cc3)CC2)c(F)cc1NC1CCC(=O)NC1=O (centres unmarked)
STAT6 ubiquitination profile (STAT6 [1]): distinct from profiles reported in the literature in untreated cancer cell lines | % of Total (STAT6 [1]; STAT6 diGly site K94): 2.7 ± 0.5% | Intensity (E + 06) (STAT6 [1]; STAT6 diGly site K94): 6.33 ± 0.74 E + 06 | % of Total (STAT6 [1]; STAT6 diGly site K107): 1.1 ± 0.4% | Intensity (E + 06) (STAT6 [1]; STAT6 diGly site K107): 2.54 ± 1.19 E + 06 | % of Total (STAT6 [1]; STAT6 diGly site K108): 1.2 ± 0.6% | Intensity (E + 06) (STAT6 [1]; STAT6 diGly site K108): 2.88 ± 1.25 E + 06 | % of Total (STAT6 [1]; STAT6 diGly site K124): 2.0 ± 0.2% | Intensity (E + 06) (STAT6 [1]; STAT6 diGly site K124): 4.91 ± 1.17 E + 06 | % of Total (STAT6 [1]; STAT6 diGly site K277): 0.0 ± 0.0% | Intensity (E + 06) (STAT6 [1]; STAT6 diGly site K277): 0 E + 06 | % of Total (STAT6 [1]; STAT6 diGly site K284): 0.8 ± 0.1% | Intensity (E + 06) (STAT6 [1]; STAT6 diGly site K284): 2.01 ± 0.46 E + 06 | % of Total (STAT6 [1]; STAT6 diGly site K288): 3.5 ± 0.7% | Intensity (E + 06) (STAT6 [1]; STAT6 diGly site K288): 8.46 ± 2.96 E + 06 | % of Total (STAT6 [1]; STAT6 diGly site K307): 3.4 ± 0.8% | Intensity (E + 06) (STAT6 [1]; STAT6 diGly site K307): 7.84 ± 0.84 E + 06 | % of Total (STAT6 [1]; STAT6 diGly site K319): 9.8 ± 1.6% | Intensity (E + 06) (STAT6 [1]; STAT6 diGly site K319): 23.7 ± 7.7 E + 06 | % of Total (STAT6 [1]; STAT6 diGly site K504): 38.0 ± 2.6% | Intensity (E + 06) (STAT6 [1]; STAT6 diGly site K504): 89.9 ± 10.1 E + 06 | % of Total (STAT6 [1]; STAT6 diGly site K595): 5.5 ± 1.0% | Intensity (E + 06) (STAT6 [1]; STAT6 diGly site K595): 12.9 ± 2.6 E + 06 | % of Total (STAT6 [1]; STAT6 diGly site K614): 2.4 ± 0.8% | Intensity (E + 06) (STAT6 [1]; STAT6 diGly site K614): 5.72 ± 2.49 E + 06 | % of Total (STAT6 [1]; STAT6 diGly site K618): 1.6 ± 0.1% | Intensity (E + 06) (STAT6 [1]; STAT6 diGly site K618): 3.86 ± 0.49 E + 06 | % of Total (STAT6 [1]; STAT6 diGly site K630): 15.9 ± 0.5% | Intensity (E + 06) (STAT6 [1]; STAT6 diGly site K630): 37.8 ± 6.7 E + 06 | % of Total (STAT6 [1]; STAT6 diGly site K647): 12.1 ± 3.2% | Intensity (E + 06) (STAT6 [1]; STAT6 diGly site K647): 29.3 ± 10.2 E + 06

CN(C)C(=O)c1cc2c(-c3ccc(N4CCN(CCCc5ccc6c(c5)n(C)c(=O)n6C5CCC(=O)NC5=O)CC4)cc3)cc(C3=CCCN(C(=O)CCn4ccnn4)C3)cc2[nH]1 (centres unmarked)
selectivity of STAT6 degradation (STAT6 [2]): selective | STAT6 degradation (STAT6 [3]): rapid and highly potent | STAT6 HiBiT degradation Dmax % 24 h (STAT6-HiBiT): A (A (>90%)) | STAT6 ubiquitination profile (STAT6 [1]): distinct from profiles reported in the literature in untreated cancer cell lines | % of Total STAT6 Ub (STAT6 [1]; STAT6 site K94): 1.5 ± 0.2% | Intensity (STAT6 [1]; STAT6 site K94 diGly peptide): 2.31 ± 0.23 E + 06 | % of Total STAT6 Ub (STAT6 [1]; STAT6 site K108): 1.2 ± 1.2% | Intensity (STAT6 [1]; STAT6 site K108 diGly peptide): 1.97 ± 1.93 E + 06 | % of Total STAT6 Ub (STAT6 [1]; STAT6 site K124): 0.1 ± 0.2% | Intensity (STAT6 [1]; STAT6 site K124 diGly peptide): 0.22 ± 0.39 E + 06 | % of Total STAT6 Ub (STAT6 [1]; STAT6 site K277): 0.4 ± 0.4% | Intensity (STAT6 [1]; STAT6 site K277 diGly peptide): 0.64 ± 0.57 E + 06 | % of Total STAT6 Ub (STAT6 [1]; STAT6 site K284): 0.3 ± 0.1% | Intensity (STAT6 [1]; STAT6 site K284 diGly peptide): 0.41 ± 0.13 E + 06 | % of Total STAT6 Ub (STAT6 [1]; STAT6 site K288): 0.8 ± 0.5% | Intensity (STAT6 [1]; STAT6 site K288 diGly peptide): 1.23 ± 0.69 E + 06 | % of Total STAT6 Ub (STAT6 [1]; STAT6 site K307): 3.7 ± 0.9% | Intensity (STAT6 [1]; STAT6 site K307 diGly peptide): 5.78 ± 0.91 E + 06 | % of Total STAT6 Ub (STAT6 [1]; STAT6 site K319): 5.1 ± 3.1% | Intensity (STAT6 [1]; STAT6 site K319 diGly peptide): 8.12 ± 5.02 E + 06 | % of Total STAT6 Ub (STAT6 [1]; STAT6 site K374): 1.7 ± 0.7% | Intensity (STAT6 [1]; STAT6 site K374 diGly peptide): 2.73 ± 1.21 E + 06 | % of Total STAT6 Ub (STAT6 [1]; STAT6 site K504): 33.7 ± 6.4% | Intensity (STAT6 [1]; STAT6 site K504 diGly peptide): 54.1 ± 13.1 E + 06 | % of Total STAT6 Ub (STAT6 [1]; STAT6 site K595): 6.6 ± 0.2% | Intensity (STAT6 [1]; STAT6 site K595 diGly peptide): 10.6 ± 1.1 E + 06 | % of Total STAT6 Ub (STAT6 [1]; STAT6 site K614): 0.9 ± 0.2% | Intensity (STAT6 [1]; STAT6 site K614 diGly peptide): 1.44 ± 0.26 E + 06 | % of Total STAT6 Ub (STAT6 [1]; STAT6 site K630): 32.7 ± 2.2% | Intensity (STAT6 [1]; STAT6 site K630 diGly peptide): 52.0 ± 3.0 E + 06 | % of Total STAT6 Ub (STAT6 [1]; STAT6 site K636): 3.3 ± 1.2% | Intensity (STAT6 [1]; STAT6 site K636 diGly peptide): 5.33 ± 2.06 E + 06 | % of Total STAT6 Ub (STAT6 [1]; STAT6 site K647): 7.9 ± 1.7% | Intensity (STAT6 [1]; STAT6 site K647 diGly peptide): 12.4 ± 1.7 E + 06
